Bioassay records from PubChem BioAssay.
PglD inh: C. jejuni PglD acetyltransferase inhibitors, primary screen, biochemical, DTNB colorimetric, single point; purified PglD enzyme, DTNB colorimetric CoA detection; UDP-N-acetylbacillosamine N-acetyltransferase PglD (Campylobacter jejuni); inhibition, % at 12.5 µM; 360,000 tested, 0.098% active; AID 602405, 2012; in the data active means inhibition above about 16%, passing the limit was not always enough
CASP6 VEID inh: human caspase-6 inhibitors, primary screen, biochemical, VEID-R110 fluorescence, single point, set 2; P55212; 350,000 tested, 0.53% active; inhibition, % at 12.5 µM; purified caspase-6, Z-VEID-R110 cleavage fluorescence;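 active means mean inhibition across replicates at least about 35%, with every replicate also reaching that limit, limit read from the data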;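 further: 0% = median of neutral control wells and 100% = no fluorescence left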
RAD52 anneal inh: RAD52 DNA annealing inhibitors, primary screen, biochemical, FRET, single point, set 2; DNA repair protein RAD52 homolog (Homo sapiens), P43351; recombinant RAD52 DNA annealing, FRET fluorescence; inhibition, % at 18.7 µM; 360,000 tested, 0.46% active;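 active means every replicate showing at least 50% inhibition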
RAD54 inh: inhibitors of human RAD54 branch migration, primary screen, biochemical, fluorescence, single point; DNA repair and recombination protein RAD54-like (Homo sapiens), Q92698; RAD54 Holliday junction branch migration, FAM/BHQ fluorescence; inhibition, % at 10.4 µM; 360,000 tested, 0.14% active; AID 602329, 2012;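 active means mean normalized replicate activity at least 40 and at least half of replicates scoring 40 or more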;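 further: 0% = median of neutral control wells and 100% = median of positive control wells; inhibitors cause a drop in the FAM fluorescence signal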
Yeast UUG start: modulators of yeast start codon fidelity, primary screen, whole organism, S. cerevisiae, single point, plate reader | AID 602363, 2012 | S. cerevisiae UUG-firefly luciferase reporter, luminescence/redox ratio | activity score, % at 18.7 µM | hit rate 0.13% among 350,000;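 active = replicate mean at a twofold rise or more, about +100% in these data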;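 also: firefly luciferase made from a UUG start codon reports start codon fidelity; reporter light over untreated wells divided by growth signal over untreated wells; some hits fall short of that in this replicate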
INS-1E GSIS act: GLuc luminescence reporter in INS-1E cells, primary screen for activators of glucose-dependent secretion of insulin | INS-1E GLuc reporter insulin secretion, 2-3 h | activation, % at 16.6 µM | 370,000 tested, 0.61% active;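 active means lowest replicate activation of at least 40%, so every replicate reaches that level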;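 further: 0% = median of neutral control wells and 100% = median of IBMX positive control wells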
Active calls of the source: *; / = no result. In the library only some 1.5% were active in any assay of this set; here they are far more common.

Letter code: A = PglD inh; B = CASP6 VEID inh; C = RAD52 anneal inh; D = RAD54 inh; E = Yeast UUG start; F = INS-1E GSIS act
C=C1C(=O)[C@]23C[C@H]1CC[C@H]2[C@]1(C)[C@@H](OC(C)=O)CC[C@@](C)(C(=O)O)[C@H]1C[C@@H]3O
  A: 0; B: 9; C: -22; D: 4; E: -12; F: 84*

C=C1C(=O)[C@]23C[C@H]1CCC2[C@@]1(C)C(C[C@@H]3O)[C@](C)(C(=O)OC)CC[C@@H]1OC(C)=O (some centres not stated)
  A: -2; B: 2; C: -5; D: 3; E: -3; F: 134*

CCCCNCC#CCOc1cc(C)ccc1C(C)C
  A: 0; B: 2; C: 37; D: 5; E: -16; F: -3

C/C(=N\NC(=O)CN(c1ccc(C)cc1)S(C)(=O)=O)c1cccs1
  A: /; B: /; C: /; D: /; E: /; F: -10

Cc1ccc(NC(=O)CSc2nnc(Cc3csc(C)n3)o2)c(C)c1
  A: /; B: 62*; C: -1; D: /; E: /; F: -16

CC(=O)Nc1nc(CC(C)C)cc(-c2ccco2)c1C#N
  A: -3; B: /; C: /; D: -5; E: -11; F: 48*

CC(=O)Nc1nc(CC(C)C)cc(-c2ccccc2)c1C#N
  A: /; B: 2; C: -18; D: /; E: /; F: 34

COc1ccccc1C(=O)Nc1c2c(nn1-c1cccc(C)c1C)CS(=O)(=O)C2
  A: -6; B: /; C: /; D: 6; E: -2; F: 59*

COc1ccccc1C(=O)Nc1c2c(nn1-c1ccc(Cl)cc1)CS(=O)(=O)C2
  A: 3; B: -1; C: -10; D: -1; E: -11; F: 2

Cc1ccccc1-n1nc2c(c1NC(=O)c1cc3ccccc3oc1=O)CS(=O)(=O)C2
  A: /; B: /; C: /; D: /; E: /; F: 54*

CCSc1nnc(NC(=O)c2csc3c2CCC(C)C3)s1 (configuration not stated)
  A: 6; B: /; C: /; D: 1; E: -3; F: /

CCSc1nnc(NC(=O)c2csc3c2CCCC3)s1
  A: -1; B: /; C: /; D: -21; E: -11; F: 119*

O=C(CSc1nnc2ccccn12)NC(=O)c1ccccc1Cl
  A: 8; B: 39*; C: -12; D: 0; E: -15; F: 24

O=C(Nc1ccc2c(c1)OCO2)N[C@H]1CC[C@@H](CCNC(=O)C2CCOCC2)O[C@@H]1CO
  A: -1; B: -2; C: 0; D: -18; E: -8; F: -4

CN1CCN(c2ccc(CNC(=O)C3Cc4c(-c5ccc6c(c5)OCO6)ccnc4O3)cc2)CC1 (configuration not stated)
  A: -2; B: 80*; C: 25; D: 29; E: 7; F: 7

CC(=O)Nc1ccc(-c2ccnc3c2CC(C(=O)NCc2ccc(N4CCN(C)CC4)cc2)O3)cc1 (configuration not stated)
  A: 2; B: -6; C: 35; D: 31; E: 7; F: -2

O=[N+]([O-])c1ccc(NCCNS(=O)(=O)c2ccccc2)c(C(F)(F)F)c1
  A: 2; B: /; C: /; D: 2; E: -4; F: /

O=C(O)c1c[nH]c2c([N+](=O)[O-])cccc2c1=O
  A: -8; B: 36*; C: -9; D: 11; E: -3; F: -1

Cc1c(C(=O)O)cccc1[N+](=O)[O-]
  A: 2; B: 0; C: -12; D: -12; E: -11; F: 3

O=C(O)c1cccc(N2C(=O)/C(=C/c3ccc(SCc4ccc(Cl)cc4)o3)SC2=S)c1
  A: /; B: 72*; C: -82; D: /; E: /; F: -3

O=C(CCN1C(=O)/C(=C/c2ccc(Cl)cc2)SC1=S)Nc1cccc(C(=O)O)c1
  A: 1; B: 8; C: -3; D: 9; E: 0; F: 4

CN(C(=O)c1ccc2c(c1)SC1=NS(=O)(=O)CCN12)C(c1ccccc1)c1ccccc1
  A: /; B: /; C: /; D: /; E: /; F: 93*

COc1ccc(N2C(=O)CCC(C(=O)c3ccccc3)=C2C)cc1
  A: -5; B: 3; C: 4; D: 2; E: -8; F: 20

Cc1cc(-c2ccncc2)n2ncc(-c3ccccc3)c2n1
  A: 3; B: -1; C: -4; D: -4; E: -30; F: 29

CCOC(=O)c1ccc(NC(=O)c2nc[nH]c2C(=O)NCCCNC(=O)c2[nH]cnc2C(=O)Nc2ccc(C(=O)OCC)cc2)cc1
  A: 0; B: 1; C: -96; D: 2; E: -2; F: 10

Full records from above:
COc1ccccc1C(=O)Nc1c2c(nn1-c1ccc(Cl)cc1)CS(=O)(=O)C2 reads PglD inh: 3; CASP6 VEID inh: -1; RAD52 anneal inh: -10; RAD54 inh: -1; Yeast UUG start: -11; INS-1E GSIS act: 2
O=C(O)c1cccc(N2C(=O)/C(=C/c3ccc(SCc4ccc(Cl)cc4)o3)SC2=S)c1 reads PglD inh: /; CASP6 VEID inh: 72*; RAD52 anneal inh: -82; RAD54 inh: /; Yeast UUG start: /; INS-1E GSIS act: -3

Additional results follow:
Letter code: A = PglD inh; B = CASP6 VEID inh; C = RAD52 anneal inh; D = RAD54 inh; E = Yeast UUG start; F = INS-1E GSIS act
CCOC(=O)c1ccc(NC(=O)c2nc[nH]c2C(=O)N[C@H](C)CO)cc1
  A: -3; B: -1; C: 5; D: -2; E: -20; F: 56*

Cc1ccc(S(=O)(=O)N2CCCC2CNC(=O)C(=O)NC2CCCC2)cc1 (configuration not stated)
  A: 3; B: 0; C: -11; D: -7; E: 7; F: -4

Cc1ccc(C(CC(=O)O)NC(=O)c2ccc(S(=O)(=O)N3CC(C)OC(C)C3)cc2)cc1 (configuration not stated)
  A: 10; B: -4; C: -10; D: 4; E: -2; F: 58*

CC1CN(S(=O)(=O)c2ccc(C(=O)O)cc2)CC(C)O1 (configuration not stated)
  A: /; B: -3; C: -7; D: /; E: /; F: 9

CC(O)CN=c1cc(-c2ccccc2)oc2ccc(Cl)cc12 (configuration not stated)
  A: -3; B: 1; C: 31; D: 67*; E: -8; F: 12

OCCN=c1cc(-c2ccccc2)oc2ccc(Cl)cc12
  A: -7; B: /; C: /; D: 82*; E: -9; F: /

O=c1cc(-c2ccccc2)oc2ccc(Cl)cc12
  A: /; B: -5; C: -11; D: /; E: /; F: 7

CCCn1c(C)nc2c(c1=O)c1nc3ccccc3nc1n2CCC1=CCCCC1
  A: -3; B: /; C: /; D: 6; E: -4; F: 61*

C[C@@H]1CN([C@H](C)CO)C(=O)c2cccc(NC(=O)Nc3cccc4ccccc34)c2O[C@@H]1CN(C)C(=O)NC1CCCCC1
  A: -2; B: 1; C: -10; D: -8; E: -7; F: -11

COc1ccc(S(=O)(=O)N2CCc3ccccc32)cc1C(=O)Nc1cccnc1
  A: -1; B: -4; C: -10; D: 2; E: -11; F: 50*

COc1ccc(S(=O)(=O)N(C)c2ccc(C(=O)NCC3CCCO3)cc2)cc1OC (configuration not stated)
  A: -1; B: 3; C: 3; D: -7; E: -1; F: 48*

COc1ccc(C(=O)Nc2ccccc2C(=O)NCC2CCCO2)cc1 (configuration not stated)
  A: 2; B: -2; C: -16; D: 7; E: -15; F: 52*

COCCNC(=O)c1ccc(N(C)S(=O)(=O)c2ccc(OC)c(OC)c2)cc1
  A: 8; B: /; C: /; D: 2; E: -18; F: 44*

O=C(NCCOc1ccccc1)C1CCC(=O)N(Cc2ccc(Cl)cc2)C1 (configuration not stated)
  A: -2; B: -2; C: -6; D: 5; E: -3; F: -5

COc1ccc(S(=O)(=O)N(C)C[C@H]2Oc3ccc(NC(=O)NC(C)C)cc3CC(=O)N([C@@H](C)CO)C[C@H]2C)cc1
  A: -1; B: -2; C: 9; D: -6; E: 11; F: 16

COc1ccc(S(=O)(=O)N(C)C[C@@H]2Oc3ccc(NC(=O)Nc4ccccc4)cc3CC(=O)N([C@@H](C)CO)C[C@@H]2C)cc1
  A: 3; B: -3; C: 0; D: 72*; E: 7; F: -30
